Data: ChEMBL document CHEMBL1914317, “Triazole ring-opening leads to the discovery of potent nonsteroidal 17β-hydroxysteroid dehydrogenase type 2 inhibitors” (Eur J Med Chem, 2011)

Chains of the proteins cited; added tags and fusions are not shown.
UniProt P03372, whole entry: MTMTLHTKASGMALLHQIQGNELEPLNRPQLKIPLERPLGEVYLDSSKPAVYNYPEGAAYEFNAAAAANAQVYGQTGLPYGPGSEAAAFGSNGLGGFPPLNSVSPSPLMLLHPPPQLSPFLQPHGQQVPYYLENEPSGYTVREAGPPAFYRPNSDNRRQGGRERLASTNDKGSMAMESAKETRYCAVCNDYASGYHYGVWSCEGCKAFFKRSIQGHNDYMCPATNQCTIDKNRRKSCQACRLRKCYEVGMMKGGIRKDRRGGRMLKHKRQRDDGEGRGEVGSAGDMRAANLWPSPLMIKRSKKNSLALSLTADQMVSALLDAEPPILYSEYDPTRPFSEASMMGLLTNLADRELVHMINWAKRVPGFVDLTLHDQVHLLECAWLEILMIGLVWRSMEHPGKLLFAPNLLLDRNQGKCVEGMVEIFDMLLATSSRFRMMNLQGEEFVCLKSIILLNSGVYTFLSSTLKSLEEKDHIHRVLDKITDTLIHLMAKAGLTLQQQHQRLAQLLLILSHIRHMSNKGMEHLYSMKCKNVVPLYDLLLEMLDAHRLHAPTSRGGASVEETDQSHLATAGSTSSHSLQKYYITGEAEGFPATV
UniProt Q92731, whole entry: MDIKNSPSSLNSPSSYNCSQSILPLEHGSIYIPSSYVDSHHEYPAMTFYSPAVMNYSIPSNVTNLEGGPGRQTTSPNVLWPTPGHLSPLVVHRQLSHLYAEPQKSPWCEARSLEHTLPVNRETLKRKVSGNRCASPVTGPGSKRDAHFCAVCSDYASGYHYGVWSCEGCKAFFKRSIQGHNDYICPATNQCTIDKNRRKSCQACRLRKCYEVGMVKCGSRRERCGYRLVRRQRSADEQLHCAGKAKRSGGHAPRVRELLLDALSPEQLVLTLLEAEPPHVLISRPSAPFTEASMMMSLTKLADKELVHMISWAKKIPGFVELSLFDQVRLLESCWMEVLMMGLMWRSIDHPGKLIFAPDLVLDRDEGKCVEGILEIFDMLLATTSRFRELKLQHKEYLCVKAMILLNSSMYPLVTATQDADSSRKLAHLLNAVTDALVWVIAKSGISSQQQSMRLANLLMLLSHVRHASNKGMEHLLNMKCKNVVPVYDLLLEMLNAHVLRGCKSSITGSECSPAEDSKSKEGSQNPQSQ

Legend:
[1] = target: Estrogen receptor (Homo sapiens) (UniProt P03372); assay: Displacement of [3H]estradiol from human recombinant ERalpha assessed as relative binding affinity after 1 hr by liquid scintillation counting relative to estradiol
Method in brief: (§1)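 Recombinant human ERα or ERβ (0.25 pmol) incubated with [3H]-E2 (10 nM) plus test compound, 1 h at room temperature; compound in DMSO (5% final). Nonspecific binding defined with diethylstilbestrol (10 µM). Receptor–ligand complexes captured on hydroxyapatite, washed, resuspended in ethanol, counted by liquid scintillation.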

[2] = target: Estrogen receptor beta (Homo sapiens) (UniProt Q92731); assay: Displacement of [3H]estradiol from human recombinant ERbeta assessed as relative binding affinity after 1 hr by liquid scintillation counting relative to estradiol; method in brief: as §1

RBA [1]: < 0.1%
RBA [2]: < 0.1%
Structure (SMILES): COc1cccc(-c2ccc(C(=O)N(C)Cc3cccc(O)c3)s2)c1
